## Measured affinities in a library of Ab-91 heavy chain variants

Reference: Engelhart et al. 2022, doi:10.1038/s41597-022-01779-4. File: FLAb, binding data.

Binding partner: SARS-CoV-2 spike HR2 peptide, sequence PDVDLGDISGINAS.

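The starting antibody came from a phage panning campaign against this peptide. In library AAYL51, one, two or three CDR residues were substituted; doubles and triples were drawn at random. In AlphaSeq, yeast of one mating type display the scFv and yeast of the other type display the target. Pairs that bind mate more often; barcode pairs of the diploids are counted by sequencing. A regression on co-assayed BCL2-family reference pairs converts the normalised counts of each replicate to an apparent Kd. Mating was done three times.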

Each scFv is VL, three GGGGS repeats, VH, as in the parent Ab-91, and differs from it in the CDRs of the heavy chain only.
VL: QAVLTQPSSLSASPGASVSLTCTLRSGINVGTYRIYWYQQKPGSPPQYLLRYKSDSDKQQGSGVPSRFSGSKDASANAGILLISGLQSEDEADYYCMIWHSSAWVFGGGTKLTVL
VH: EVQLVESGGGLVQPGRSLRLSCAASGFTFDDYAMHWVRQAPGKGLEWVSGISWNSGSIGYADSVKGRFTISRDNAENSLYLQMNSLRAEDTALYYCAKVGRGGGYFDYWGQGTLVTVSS

Positions count from residue 1 of the parent VH; Y32G puts G in place of Y. Affinities are written as log10 Kd with Kd in nM; a lower number is a better binder. An entry "ND" has no value in the source: the pair was not observed among the diploids in that replicate. This suggests poor binding but is not conclusive. Nonspecific signal, from three strains lacking the peptide, appeared in 21% of pairings of library AAYL51, centred on 4.54 (5% of these signals below 3.26); values are not corrected for it. Also given: how often the same scFv was detected with the empty control strains, with their mean in brackets. Parent in this assay: reference entry 1.86, copy in this library 0.88.

| # | changes | log10 Kd, replicates | control signals |
|---|---|---|---|
| 1 | Y32G/N54V/V64Y | 4.79 5.56 4.38 | 3 of 9 (5.26) |
| 2 | G56M/S57N/Y108A | 2.22 2.41 2.05 | 9 of 9 (4.81) |
| 3 | G26V/F27V/V99M | ND ND ND | 0 of 9 |
| 4 | D30K/M34C/D107L | 5.25 5.20 ND | 3 of 9 (4.35) |
| 5 | D31I/S57E/S63V | 2.75 2.67 2.58 | 4 of 9 (5.80) |
| 6 | D30R/G50V/S63H | 5.18 5.24 6.03 | 9 of 9 (4.82) |
| 7 | A33F/S55T/S57Y | ND ND ND | 0 of 9 |
| 8 | H35R/S52P/G56Y | 4.69 7.00 5.51 | 4 of 9 (4.64) |
| 9 | S55T/K65Y/Y108V | 3.50 3.07 2.65 | 2 of 9 (3.93) |
| 10 | S55R/R101H | ND ND ND | 1 of 9 (3.00) |
| 11 | I58Q/D107F/Y108R | ND ND ND | 3 of 9 (4.62) |
| 12 | D31T/G103L/D107C | ND ND ND | 0 of 9 |
| 13 | F27E/K65R/R101A | ND 3.53 ND | 2 of 9 (2.68) |
| 14 | S57I/A61H/Y108S | ND ND ND | 0 of 9 |
| 15 | D31N/N54K/F106K | ND ND ND | 1 of 9 (3.70) |
| 16 | S63H/G104P | ND ND ND | 0 of 9 |
| 17 | I58N/G59R/S63I | ND ND ND | 1 of 9 (5.07) |
| 18 | Y32N/G50T/G100D | ND ND ND | 0 of 9 |
| 19 | G26A/H35V/D62M | ND 3.94 ND | 0 of 9 |
| 20 | A33P/D62Q/F106D | 3.07 4.47 3.51 | 1 of 9 (3.88) |
| 21 | S52Q/G56Q/D62A | ND ND ND | 0 of 9 |
| 22 | G100W/D107V/Y108G | 3.68 ND 3.62 | 0 of 9 |
| 23 | Y32S/V99E/D107M | ND ND ND | 4 of 9 (4.85) |
| 24 | S52F/K65T/G103L | 5.76 4.79 ND | 4 of 9 (4.98) |
| 25 | D30N/A61Q/S63T | 1.65 1.34 0.76 | 0 of 9 |
| 26 | M34H/D107T | ND 5.49 ND | 0 of 9 |
| 27 | F27D/A33C/V99Y | 4.46 5.06 ND | 1 of 9 (3.58) |
| 28 | G50V/D62T/G103F | 4.84 5.62 ND | 8 of 9 (5.35) |
| 29 | F27G/T28L/V64A | ND ND ND | 0 of 9 |
| 30 | A61D/G103H/Y108C | ND ND ND | 3 of 9 (5.00) |
| 31 | G50W/I51P/F106K | ND ND ND | 0 of 9 |
| 32 | R101P/G102H | ND ND 1.29 | 0 of 9 |
| 33 | N54L/Y105I/D107I | ND ND ND | 1 of 9 (3.57) |
| 34 | G50R/I58C/V99H | 5.24 ND ND | 3 of 9 (4.38) |
| 35 | G50H | ND 5.58 ND | 6 of 9 (4.88) |
| 36 | I51D/G59I/V99C | ND ND ND | 1 of 9 (3.42) |
| 37 | T28A/G100V/G104I | ND ND ND | 0 of 9 |
| 38 | F29W/K65E | 5.89 ND ND | 2 of 9 (4.09) |
| 39 | D30G/W53Y/Y108P | 2.66 2.60 2.04 | 4 of 9 (4.61) |
| 40 | D30M/V64F/Y108E | ND ND ND | 1 of 9 (1.47) |
| 41 | M34D/Y60H/G102D | ND ND ND | 0 of 9 |
| 42 | M34V/I58F/A61D | ND ND ND | 5 of 9 (4.51) |
| 43 | G26T/F27Q/G102C | 4.22 5.20 ND | 6 of 9 (4.50) |
| 44 | S55K/I58C/Y60T | ND 4.98 ND | 3 of 9 (5.30) |
| 45 | W53Q/V64Y/D107P | 2.56 4.09 3.38 | 4 of 9 (4.02) |
| 46 | A33P/I51D/V64Q | ND ND ND | 0 of 9 |
| 47 | F106N | ND ND ND | 0 of 9 |

5 of these entries, quoted again:

changes,"log10 Kd, replicates",control signals
M34D/Y60H/G102D,ND ND ND,0 of 9
F106N,ND ND ND,0 of 9
W53Q/V64Y/D107P,2.56 4.09 3.38,4 of 9 (4.02)
F27E/K65R/R101A,ND 3.53 ND,2 of 9 (2.68)
T28A/G100V/G104I,ND ND ND,0 of 9